For one compound, IC50 results are on record in ChEMBL document CHEMBL4725338, “Discovery of novel histone lysine methyltransferase G9a/GLP (EHMT2/1) inhibitors: Design, synthesis, and structure-activity relationships of 2,4-diamino-6-methylpyrimidines” (Bioorg Med Chem Lett, 2020).

The structures appear in SMILES notation.

The assay has as its target T1, Histone-lysine N-methyltransferase EHMT2 (Homo sapiens, UniProt Q96KQ7).
T1 sequence (Q96KQ7 whole entry): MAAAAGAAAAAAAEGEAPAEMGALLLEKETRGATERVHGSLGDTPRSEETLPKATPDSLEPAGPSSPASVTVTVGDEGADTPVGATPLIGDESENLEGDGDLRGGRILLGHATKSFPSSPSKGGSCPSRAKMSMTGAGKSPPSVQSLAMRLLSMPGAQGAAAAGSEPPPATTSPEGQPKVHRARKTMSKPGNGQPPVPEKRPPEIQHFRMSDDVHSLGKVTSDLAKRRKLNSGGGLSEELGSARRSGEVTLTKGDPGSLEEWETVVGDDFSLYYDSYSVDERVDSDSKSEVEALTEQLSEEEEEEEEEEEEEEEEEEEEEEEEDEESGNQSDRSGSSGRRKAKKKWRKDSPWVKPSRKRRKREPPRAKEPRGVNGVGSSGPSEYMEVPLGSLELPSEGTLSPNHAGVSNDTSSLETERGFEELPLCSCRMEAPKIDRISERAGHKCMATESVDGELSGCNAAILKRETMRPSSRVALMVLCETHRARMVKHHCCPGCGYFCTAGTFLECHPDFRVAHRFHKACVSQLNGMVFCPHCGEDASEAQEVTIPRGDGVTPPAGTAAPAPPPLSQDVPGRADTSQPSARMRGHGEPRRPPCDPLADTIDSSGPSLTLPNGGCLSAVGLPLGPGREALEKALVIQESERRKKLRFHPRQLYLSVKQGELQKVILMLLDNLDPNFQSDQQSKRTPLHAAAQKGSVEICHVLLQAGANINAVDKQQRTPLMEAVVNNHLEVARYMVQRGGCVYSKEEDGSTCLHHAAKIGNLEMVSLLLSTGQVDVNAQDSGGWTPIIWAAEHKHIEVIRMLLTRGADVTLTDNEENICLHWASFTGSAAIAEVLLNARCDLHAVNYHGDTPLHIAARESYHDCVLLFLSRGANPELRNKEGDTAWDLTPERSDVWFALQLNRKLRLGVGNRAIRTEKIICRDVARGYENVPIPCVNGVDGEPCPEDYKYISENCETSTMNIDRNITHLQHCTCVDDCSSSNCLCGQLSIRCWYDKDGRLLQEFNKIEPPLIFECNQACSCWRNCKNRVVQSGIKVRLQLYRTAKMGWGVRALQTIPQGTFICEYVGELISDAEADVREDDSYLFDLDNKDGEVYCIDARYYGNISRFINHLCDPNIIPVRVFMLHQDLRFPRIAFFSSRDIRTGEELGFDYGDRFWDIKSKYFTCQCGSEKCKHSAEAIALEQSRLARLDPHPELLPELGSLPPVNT
Put plainly: Inhibition G9a (unknown origin).

As for `CNc1cc(C)nc(Nc2ccc(OC)c(C3=CCN(C)CCC3)c2)n1`, the IC50 was found to be 0.0151 µM. This lies in the double-digit nanomolar range.

A word on the IC50: it is the concentration at which inhibition is half-maximal. A higher IC50 goes with lower potency.
